# Reference: US20230265479A1 (priority 2020, published 2023)
# Legend:
# [1] = tested on: Firefly Luciferase reporter gene driven by the C3P3-G2 system in HEK-293 cells; test: Firefly Luciferase reporter expression by the C3P3-G2 system in HEK-293 cells
# Description: (§1) The C3P3 system was used to express the Firefly luciferase test gene (FIG. 2, i.e. pK1Ep-Luciferase-4xλBoxBr), which consists of a K1E phage RNA polymerase promoter transcribed by the C3P3 enzyme, 5′-UTR from the human β-globin gene (Genbank NM_000518.4), Kozak consensus sequence for initiation of translation followed by the ORF of the Photinus pyralis gene (i.e. Firefly luciferase; UniProtKB/Uniprot accession number Q27758) and stop codon, four BoxBL RNA tethering repeats in tandem from the lambda bacteriophage that binds at high affinity to the N-peptide of the C3P3-G2 and C3P3-G3a enzyme (nucleotides 38312-38298 of genomic sequence of Enterobacteria phage lambda KT232076.1), an artificial poly[A] track of 40 adenosine residues, followed by a self-cleaving genomic ribozyme from of the hepatitis D virus, and terminated by the bacteriophage T7 φ10 transcription stop. As a control the Firefly luciferase was expressed by standard nuclear expression system using RNA polymerase II-dependent CMV promoter (FIG. 3). The corresponding pCMVScript-Luciferase plasmid therefore contained the IE1 human CMV promoter/enhancer, Kozak consensus sequence followed by the ORF from Photinus pyralis gene (UniProtKB/Uniprot accession number Q27758), and late SV40 polyadenylation signal.
# (§2) For standard experiments, the Human Embryonic Kidney 293 (HEK-293, ATCC CRL 1573) were routinely grown at 37° C. in 5% CO2 atmosphere at 100% relative humidity. Cells were maintained in Dulbecco's Modified Eagle's Medium (DMEM) supplemented with 4 mM L-alanyl-L-glutamine, 10% fetal bovine serum (FBS), 1% non-essential amino-acids, 1% sodium pyruvate, 1% penicillin and streptomycin, and 0.25% fungizone.
# (§3) Cells were routinely plated in 24-well plates at 1×10^5 cells per well the day before transfection and transfected at 80% cell confluence. […]
# (§4) Human cells were cultured and cotransfected with the pC3P3-G1/pK1Ep-Luciferase-4xλBoxBr or pC3P3-G2/pK1Ep-Luciferase-4xλBoxBr plasmids as previously described. For standard luciferase and hSEAP gene reporter expression assays, cells were analyzed 48 hours after transfection. […]
# (§5) Luciferase luminescence was assayed by the Luciferase Assay System (Promega, Madison, Wis.) according to the manufacturer's recommendations. […] Luminescence readout was taken on a Tristar 2 microplate reader (Berthold, Bad Wildbad, Germany) with a read time of one second per well.
# (§6) In order to normalize for transfection efficacy, cells were transfected with the pORF-eSEAP plasmid (InvivoGen, San Diego, Calif.), which encodes for the human secreted embryonic alkaline phosphatase (hSEAP) driven by the EF-1α/HTLV composite promoter. […] Gene reporter expression was expressed as the ratio of luciferase luminescence (RLU, relative light units) to eSEAP absorbance (OD, optic density). […]
# [2] = tested on: Firefly Luciferase reporter gene driven by the C3P3-G1 system in HEK-293 cells; test: Firefly Luciferase reporter expression by the C3P3-G1 system in HEK-293 cells
# Description: as §1, §2, §3, §4, §5, §6
smiles,measurement,setting,value
O=C1Nc2ccc3ncsc3c2C1=Cc1cnc[nH]1,Firefly Luciferase relative ratio vs. no CAS 608512-97-6,[1]; 10 nM CAS 608512-97-6,497 010; NS (1.15)
same,Firefly Luciferase relative ratio vs. no CAS 608512-97-6,[1]; 100 nM CAS 608512-97-6,451 546; <0.0001 (1.30)
same,Firefly Luciferase relative ratio vs. no CAS 608512-97-6,[1]; 1 μM CAS 608512-97-6,180 533; <0.0001 (1.67)
same,Firefly Luciferase relative ratio vs. no CAS 608512-97-6,[1]; 10 μM CAS 608512-97-6,488 998; <0.0001 (1.50)
same,Firefly Luciferase relative ratio vs. no CAS 608512-97-6,[2]; 10 nM CAS 608512-97-6,159 871; NS (1.05)
same,Firefly Luciferase relative ratio vs. no CAS 608512-97-6,[2]; 100 nM CAS 608512-97-6,424 730; <0.01 (1.20)
same,Firefly Luciferase relative ratio vs. no CAS 608512-97-6,[2]; 1 μM CAS 608512-97-6,367 210; <0.0001 (1.31)
same,Firefly Luciferase relative ratio vs. no CAS 608512-97-6,[2]; 10 μM CAS 608512-97-6,235 564; <0.0001 (1.25)
